Source: patent US8017791B2

Chains of the proteins cited; added tags and fusions are not shown. Residues count along the entry.
UniProt Q9WTR4, 1-597: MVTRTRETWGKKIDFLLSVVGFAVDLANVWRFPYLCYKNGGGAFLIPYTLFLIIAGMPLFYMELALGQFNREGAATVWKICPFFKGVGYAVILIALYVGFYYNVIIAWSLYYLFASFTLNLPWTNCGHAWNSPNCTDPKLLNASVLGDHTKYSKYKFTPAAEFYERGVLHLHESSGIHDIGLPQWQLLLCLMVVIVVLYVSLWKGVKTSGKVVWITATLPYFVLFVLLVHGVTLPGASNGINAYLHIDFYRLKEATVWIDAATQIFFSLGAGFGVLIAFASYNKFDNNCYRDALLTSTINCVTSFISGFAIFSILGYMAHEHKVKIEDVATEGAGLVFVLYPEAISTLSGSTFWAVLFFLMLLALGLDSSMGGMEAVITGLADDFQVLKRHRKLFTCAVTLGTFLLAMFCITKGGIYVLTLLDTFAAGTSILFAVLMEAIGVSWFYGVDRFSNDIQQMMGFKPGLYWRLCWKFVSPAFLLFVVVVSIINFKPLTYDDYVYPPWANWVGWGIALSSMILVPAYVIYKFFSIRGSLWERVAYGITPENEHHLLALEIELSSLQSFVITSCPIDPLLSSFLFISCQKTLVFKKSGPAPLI
UniProt P23977, whole entry: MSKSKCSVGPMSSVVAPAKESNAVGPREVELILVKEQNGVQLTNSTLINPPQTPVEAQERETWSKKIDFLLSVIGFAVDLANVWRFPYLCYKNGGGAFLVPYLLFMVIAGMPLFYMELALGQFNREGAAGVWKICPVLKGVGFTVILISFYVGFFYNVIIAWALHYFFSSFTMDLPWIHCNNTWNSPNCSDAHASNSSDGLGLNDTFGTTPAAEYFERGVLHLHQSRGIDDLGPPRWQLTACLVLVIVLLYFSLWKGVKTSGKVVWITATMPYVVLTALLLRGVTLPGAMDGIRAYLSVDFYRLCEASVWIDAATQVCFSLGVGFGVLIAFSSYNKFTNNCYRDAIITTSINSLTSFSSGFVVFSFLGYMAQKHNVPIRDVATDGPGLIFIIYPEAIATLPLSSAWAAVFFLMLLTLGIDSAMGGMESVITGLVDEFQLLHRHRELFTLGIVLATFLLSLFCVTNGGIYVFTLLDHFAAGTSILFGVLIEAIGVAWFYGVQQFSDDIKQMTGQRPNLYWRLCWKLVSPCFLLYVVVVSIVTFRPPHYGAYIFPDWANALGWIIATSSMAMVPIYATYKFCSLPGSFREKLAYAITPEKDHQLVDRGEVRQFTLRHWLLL
UniProt P31652, whole entry: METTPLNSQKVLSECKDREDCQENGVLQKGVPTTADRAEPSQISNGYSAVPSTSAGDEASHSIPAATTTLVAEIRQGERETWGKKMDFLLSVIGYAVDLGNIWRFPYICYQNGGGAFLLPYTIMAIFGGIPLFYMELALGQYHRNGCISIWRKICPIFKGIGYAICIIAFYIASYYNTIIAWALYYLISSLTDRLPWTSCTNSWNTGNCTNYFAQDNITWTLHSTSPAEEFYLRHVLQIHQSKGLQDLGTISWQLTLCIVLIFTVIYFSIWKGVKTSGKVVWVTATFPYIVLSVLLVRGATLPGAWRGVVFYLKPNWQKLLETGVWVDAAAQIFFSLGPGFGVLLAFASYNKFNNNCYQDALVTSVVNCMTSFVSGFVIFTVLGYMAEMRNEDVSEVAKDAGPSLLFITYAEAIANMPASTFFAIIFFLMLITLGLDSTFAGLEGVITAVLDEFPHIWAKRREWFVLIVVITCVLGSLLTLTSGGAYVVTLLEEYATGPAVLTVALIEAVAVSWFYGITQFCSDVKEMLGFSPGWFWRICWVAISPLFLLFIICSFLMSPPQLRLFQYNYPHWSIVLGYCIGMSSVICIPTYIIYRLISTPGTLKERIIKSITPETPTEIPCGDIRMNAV

Tests used:
[1] = molecular target: NET (Rattus norvegicus, UniProt Q9WTR4); experiment: Inhibition of [3H]nisoxetine binding to NET; settings: read-out: NET binding, IC50 [3H]nisoxetine; Table 5
[2] = molecular target: T1, DAT (Rattus norvegicus, UniProt P23977); experiment: Inhibition of [3H]DA uptake by DAT into rat striatal synaptosomes; type: biochemical; settings: read-out: DAT uptake, IC50 [3H]DA; Table 5
[3] = molecular target: T2, SERT (Rattus norvegicus, UniProt P31652); experiment: Inhibition of [3H]citalopram binding to SERT; settings: read-out: SERT binding, IC50 [3H]citalopram; Table 5
[4] = molecular target: T1, DAT; experiment: Inhibition of [3H]WIN 35,428 binding to DAT; settings: read-out: DAT binding, IC50, [3H]Win 35,428
[5] = molecular target: NET (Rattus norvegicus); experiment: NET uptake inhibition, [3H]NE; type: biochemical; settings: read-out: NET IC50, uptake inhibition value; Table 5, NET column, footnote b: Uptake inhibition values
[6] = molecular target: T2, SERT; experiment: SERT uptake inhibition, [3H]5-HT; type: biochemical; settings: read-out: SERT IC50, uptake inhibition value; Table 5, SERT column, footnote b: Uptake inhibition values

| SMILES | IC50 [1] | IC50 [2] | IC50 [3] | IC50 [4] | IC50 [5] | IC50 [6] |
| --- | --- | --- | --- | --- | --- | --- |
| Fc1ccc(CN[C@H]2CC[C@@H](CNC(c3ccccc3)c3ccccc3)OC2)cc1 (relative stereo) | 3430 nM | 215 nM | 4.4 µM | 398 nM | – | – |
| Fc1ccc(CNC2CCC(COC(c3ccccc3)c3ccccc3)OC2)cc1 (single isomer, unassigned) [48] | 1330 nM | 104 nM | > 10 µM | 80.4 nM | – | – |
| Fc1ccc(CNC2CCC(COC(c3ccccc3)c3ccccc3)OC2)cc1 (single isomer, unassigned) [52] | 1440 nM | 165 nM | > 10 µM | 162 nM | – | – |
| Fc1ccc(CNC2CCC(OC(c3ccccc3)c3ccccc3)OC2)cc1 (single isomer, unassigned) [63] | – | 158 nM | – | 420 nM | 1490 nM | 1490 nM |
| Fc1ccc(CNC2CCC(OC(c3ccccc3)c3ccccc3)OC2)cc1 (single isomer, unassigned) [64] | 255 nM | – | 2.44 µM | 296 nM | – | – |
